Measured values as given in PubChem BioAssay (NCATS).
The entries are a selection whose mix differs from that of the whole data set. Inconclusive results are not listed. Active and inactive are the calls of the source. Unless noted, the call rests on the fitted dose curve; in most records, active means well fitted curve in the direction sought with a large enough effect; inconclusive means small, poorly fitted or top-dose-only effect, or another doubt; inactive means no such curve, though single readings can be large; an effect the other way counts as inactive or inconclusive.

Protein sequences, listed by entry. Tags and fused reporters are not part of them.
UniProt Q07343, whole entry: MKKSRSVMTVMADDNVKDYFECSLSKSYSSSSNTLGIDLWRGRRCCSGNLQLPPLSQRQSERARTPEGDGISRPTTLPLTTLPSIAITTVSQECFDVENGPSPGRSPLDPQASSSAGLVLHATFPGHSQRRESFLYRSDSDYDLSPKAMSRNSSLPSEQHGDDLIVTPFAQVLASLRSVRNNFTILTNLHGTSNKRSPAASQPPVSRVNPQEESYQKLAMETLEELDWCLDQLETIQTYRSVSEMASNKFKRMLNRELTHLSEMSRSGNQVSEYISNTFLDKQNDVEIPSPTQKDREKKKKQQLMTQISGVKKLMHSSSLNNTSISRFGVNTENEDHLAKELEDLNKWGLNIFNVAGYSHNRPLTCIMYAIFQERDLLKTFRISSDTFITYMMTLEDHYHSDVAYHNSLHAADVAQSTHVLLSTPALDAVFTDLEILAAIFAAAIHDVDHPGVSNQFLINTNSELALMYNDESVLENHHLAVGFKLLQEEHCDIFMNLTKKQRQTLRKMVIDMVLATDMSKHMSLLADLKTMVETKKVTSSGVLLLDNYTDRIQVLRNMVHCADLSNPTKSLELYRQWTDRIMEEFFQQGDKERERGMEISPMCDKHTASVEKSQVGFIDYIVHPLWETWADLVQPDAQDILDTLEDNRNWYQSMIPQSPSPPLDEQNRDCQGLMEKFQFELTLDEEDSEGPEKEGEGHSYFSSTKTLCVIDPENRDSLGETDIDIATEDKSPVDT

Key:
[1] = Cell Viability - N2a (AID 540); details: N2a mouse neuroblastoma cell viability; at 92.2 µM (top of the series);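 further: plate controls were DMSO alone for no effect and tamoxifen control for full effect; nearly all actives have a fitted effect of over 45% in size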
In short: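 CellTiter-Glo ATP luminescence, read 20 min after reagent at room temperature, reported viability following 40 h compound treatment at 37 °C. N2a mouse neuroblastoma cells seeded 1500/well; Hill equation gave AC50.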

[2] = Cell Viability - NIH 3T3 (AID 541); further: nearly all actives have a fitted effect of over 25% in size; further: potency means the concentration at half of the fitted maximal effect;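 on activity change, negative = cytotoxicity: plate controls were DMSO alone for no effect and tamoxifen positive control for full effect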
In short: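 Intracellular ATP (CellTiter-Glo luminescence, 20 min at room temperature) measured after 40 hr compound exposure at 37 °C of 1000 NIH 3T3 mouse fibroblasts/well in complete medium; AC50 derived by Hill-equation modelling of qHTS concentration-response curves.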

[3] = Cell Viability - HUV-EC-C (AID 542); details: HUV-EC-C endothelial cell viability, qHTS; at 92.2 µM (top of the series); further: on the % scale 0 is the no-effect control and ±100 the full control effect; nearly all actives have a fitted effect of over 35% in size
In short: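 CellTiter-Glo luminescence measured ATP loss in HUV-EC-C cells (1000/well) after 40 hr compound exposure at 37 °C, in complete culture medium. Concentration-response data were Hill-fitted to give AC50.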

[4] = Cell Viability - H-4-II-E (AID 543); details: H-4-II-E rat hepatoma viability; at 92.2 µM (top of the series); further: on the % scale 0 is the no-effect control and ±100 the full control effect; nearly all actives have a fitted effect of over 35% in size
In short: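 CellTiter-Glo luminescence (intracellular ATP) measured after 40 h compound exposure at 37 °C in H-4-II-E rat hepatoma cells seeded at 1500/well. Values are AC50s fitted with the standard Hill equation.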

[5] = Cell Viability - SH-SY5Y (AID 544); details: SH-SY5Y neuroblastoma cell viability; at 92.2 µM (top of the series); further: nearly all actives have a fitted effect of over 55% in size
In short: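 Cytotoxicity measured via ATP-dependent luciferase luminescence (CellTiter-Glo) following 40 h, 37 °C exposure of 1500 SH-SY5Y cells per well. Concentration-response data were fitted with the standard Hill equation to give AC50.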

[6] = Cell Viability - Renal Proximal Tubule (AID 545); details: renal proximal tubule cells viability, primary cells of rat origin; at 91.7 µM (top of the series); further: nearly all actives have a fitted effect of over 40% in size
In short: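 In this qHTS format, normal rat kidney-derived proximal tubule cells in complete culture medium receive compound titrations, then sit 40 hours at 37 °C before luciferase-based ATP quantitation; potency is reported as AC50 from concentration-response curves.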

[7] = Cell Viability - Mesenchymal (AID 546); details: mesenchymal cells viability, qHTS; at 91.7 µM (top of the series);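 further: cells exposed to compound for 40 hours before reading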
In short: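 Human renal mesenchymal cells (glomerulus-derived), 1000 cells/well, 5 hr 37 °C pre-incubation; compound 40 hr, 37 °C; CellTiter-Glo, 20 min RT; luminescence; AC50 via Hill equation.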

[8] = Cellular Toxicity (caspase-3) HepG2 (AID 654); details: HepG2 caspase-3 activation, luminescence, 0% = DMSO only, 100% = tamoxifen; at 92.2 µM (top of the series);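 further: cells exposed to compound for 16 hours before reading; 0% = DMSO alone and 100% = caspase signal from 100 µM tamoxifen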
In short: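 Caspase 3/7 activation is measured as a luminescence increase (aminoluciferin substrate) after 16 h compound exposure of human hepatocarcinoma HepG2 cells. AC50 values are Hill fits, scaled between DMSO baseline and 100 uM tamoxifen stimulation.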

[9] = Cellular Toxicity (caspase-3) Jurkat (AID 655); details: Jurkat caspase-3 activation, luminescence, DMSO = 0%, tamoxifen = 100%; at 92.2 µM (top of the series);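 further: cells exposed to compound for 16 h at 37 °C before reading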
In short: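 qHTS in human Jurkat T-cell leukemia line: 16 hr compound treatment at 37 °C, caspase-3/7 activity measured by Caspase-Glo luminescence. AC50 derived from Hill equation.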

[10] = Cellular Toxicity (caspase-3) HUV-EC-C (AID 656); details: HUV-EC-C cells, caspase-3 activation (apoptosis), vehicle = 0, 100 µM tamoxifen = 100%; at 92.2 µM (top of the series)
In short: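 Concentration-dependent caspase 3/7 induction was assessed in HUV-EC-C cells exposed for 16 hours. Data scaled between DMSO and tamoxifen (100 uM) controls.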

[11] = Cellular Toxicity (caspase-3) SHSY5Y (AID 657); details: SH-SY5Y caspase-3 activation, DMSO zero, 10 µM staurosporine = 100%; at 91.7 µM (top of the series);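 further: cells exposed to compound for 16 hours at 37 °C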
In short: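 Readout: caspase-cleaved peptide-aminoluciferin substrate driving luciferase light in SH-SY5Y neuroblastoma cells after 16 h treatment. Response normalized to DMSO and 10 uM staurosporine controls.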

[12] = Cellular Toxicity (caspase-3) BJ (AID 658); details: BJ fibroblasts, luminescence, normalized: DMSO 0%, staurosporine 100%; at 91.7 µM (top of the series)
In short: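 qHTS, BJ fibroblasts, 1000 cells/well; 5 hr preincubation, 16 hr compound, 37 °C; Caspase-Glo 3/7 reagent, 1 hr RT; luminescence. DMSO = 0%, 10 uM staurosporine = 100%. Hill-equation AC50.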

[13] = Cellular Toxicity (caspase-3) MRC-5 (AID 659); details: MRC-5 cells, luminescence, normalized: DMSO 0%, 10 µM staurosporine 100%; at 91.7 µM (top of the series)
In short: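 MRC-5 fibroblasts, 1500/well; 16 h cpd, 37 °C; Caspase-Glo 3/7, 1 h RT; lumi read. Norm: DMSO = 0%, 10 uM staurosporine = 100%. Hill-fit AC50 from qHTS conc-response.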

[14] = Cellular Toxicity (caspase-3) Mesangial (AID 660); details: mesangial cells, normalized: DMSO 0%, 100 µM tamoxifen 100%; at 91.7 µM (top of the series);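 further: combined caspase 3 and 7 activity read by Caspase-Glo luminescence; cells exposed to compound for 16 h before the caspase read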
In short: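 Caspase 3/7 activation measured by Caspase-Glo 3/7 luminescence (20 min, room temperature) following 16 h exposure of mesangial cells (1000/well); AC50 from Hill-equation fit, normalized to DMSO and 100 uM tamoxifen.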

[15] = Cellular Toxicity (caspase-3) SK-N-SH (AID 661); details: SK-N-SH caspase-3 activation, qHTS, DMSO as zero, staurosporine as full; at 91.7 µM (top of the series)
In short: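 Caspase 3/7 activation was read by luminogenic substrate cleavage after 16 hour treatment of SK-N-SH cells. Signal was scaled between DMSO and 10 uM staurosporine, and concentration-response data were fitted with the Hill equation for AC50.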

[16] = Cellular Toxicity (caspase-3) H-4-II-E (AID 663); details: H-4-II-E rat hepatoma, scaled: DMSO 0%, 100 µM tamoxifen 100%; at 92.2 µM (top of the series);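 further: cells exposed to compound for 16 hr before readout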
In short: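 H-4-II-E rat hepatoma, 1500 cells/well, 5 hr settle at 37 °C; compound 16 hr, 37 °C, complete medium; Caspase-Glo 3/7, 20 min RT; luminescence. DMSO = 0%, 100 uM tamoxifen = 100%; Hill-equation AC50.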

[17] = AP1 Signaling Pathway (AID 357; active means well fitted curve in either direction with a large enough effect, not every such curve was filed as active;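 further: ME-180 reporter cells stimulated with EGF at its EC50 level; on the % scale 0 is the no-effect control and ±100 the full control effect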); details: ME-180 AP-1-bla reporter, EGF-induced, beta-lactamase ratio, 5 h; at 7.69 µM (top of the series) unless noted
In short: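 Beta-lactamase reporter under AP-1 response element, ME-180 background. Stimulus: EC50 EGF. Compound exposure 5 h, 37 °C. Detection: CCF4, 2.5 h RT, 460/530 nm. Values: AC50 from titration.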

[18] = NFAT Signaling Pathway (AID 444; active means well fitted curve in either direction with a large enough effect, not every such curve was filed as active;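 further: carbachol stimulus at about its EC50 of 1 µM final; on the % scale 0 is the no-effect control and ±100 the full control effect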); details: Jurkat NFAT-bla M1, carbachol, beta-lactamase ratio, 5 h; at 7.69 µM (top of the series) unless noted
In short: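 Jurkat cells with NFAT-driven β-lactamase reporter and co-expressed M1 receptor, stimulated with carbachol (final 1 uM, ~EC50), compound titration, 5 h at 37 °C. CCF4 loaded 1 h at RT; 460/530 nm ratio gave %activity and AC50.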

[19] = Stat Signaling Pathway (AID 446; active means well fitted curve in either direction with a large enough effect, not every such curve was filed as active;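 further: ME-180 cervical cancer cells given 40 pM IL-6 alongside compound; SIE-controlled beta-lactamase reporter measured as 460/530 nm FRET emission ratio; on the % scale 0 is the no-effect control and ±100 the full control effect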); details: ME-180 (cervical carcinoma) SIE beta-lactamase reporter, IL-6 stimulated, 5 h; at 38 µM (top of the series) unless noted
In short: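 Emission at 460 and 530 nm (excitation 405 nm) reports SIE-controlled beta-lactamase in ME-180 cells. Cells received compound with 40 pM IL-6 for 5 hrs at 37 C; data scaled between 300 pM IL-6 and 125 nM JAK-inhibitor controls.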

[20] = biological target: 3',5'-cyclic-AMP phosphodiesterase 4B (Homo sapiens) (UniProt Q07343); experiment: qHTS Assay for Inhibitors of PDE-IV (AID 607; active means well fitted activation curve with a large enough effect in the main read-out, with a control signal flat, not every such curve was filed as active; further: % of control where 0% means no effect); details: HEK293 ACTOne CNG channel cells, membrane potential fluorescence; at 22.9 µM (top of the series)
In short: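 The readout is membrane depolarisation from a cAMP-sensing CNG channel, detected with a potential dye at ex 535/em 590. Cells were HEK293-derived (endogenous PDE-IV) at 1000 cells/well, titrated up to 22.9 uM final.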

Cc1ccc([N+](=O)[O-])cc1[N+](=O)[O-]
inactive: activity change, negative = cytotoxicity [1] -10.6% | Potency [2] | activity change, negative = cytotoxicity [3] -2.56% | activity change, negative = cytotoxic [4] 0.149% | viability change, negative = cytotoxic [5] -3.04% | activity change, negative = cytotoxicity [6] 12.2% | activity change, negative = cytotoxicity [7] 8.9% | caspase-3 activation [8] 1.11% | caspase-3 activation [9] 1.85% | caspase-3 activation [10] -1.52% | caspase-3 activation [11] -1.87% | caspase-3 activation [12] -0.553% | caspase-3 activation [13] 0.129% | caspase-3 activation [14] 1.45% | caspase-3 activation [15] -2.47% | caspase-3 activation [16] -0.686%

NNC(NN)NN.n1nc(-c2nn[nH]n2)n[nH]1
inactive: activity change, negative = inhibition [17] 28.1% | activity change, negative = inhibition [18] -23.2% | activity, negative = inhibition [19] 22.6% [at 7.69 µM] | activation (PDE inhibition) [20] -2.65%

CCC(C)(OO)OOC(C)(CC)OO (configuration not stated)
inactive: activity change, negative = cytotoxicity [1] -0.54% | Potency [2] | activity change, negative = cytotoxicity [3] 12.3% | activity change, negative = cytotoxic [4] 0.495% | viability change, negative = cytotoxic [5] -0.864% | activity change, negative = cytotoxicity [6] 6.13% | activity change, negative = cytotoxicity [7] 4.88% | caspase-3 activation [8] 0.67% | caspase-3 activation [9] 4.56% | caspase-3 activation [10] 1.98% | caspase-3 activation [11] 2.79% | caspase-3 activation [12] -1.82% | caspase-3 activation [13] -0.827% | caspase-3 activation [14] 1.58% | caspase-3 activation [15] -2.48% | caspase-3 activation [16] -0.518%

C/C1=C2N=C(/C=C3N=C(/C(C)=C4\[N-][C@@](C)([C@H]5N=C1[C@@](C)(CCC(=O)NC[C@H](C)OP(=O)([O-])O[C@@H]1[C@H](O)[C@H](n6cnc7cc(C)c(C)cc76)O[C@@H]1CO)[C@@H]5CC(N)=O)[C@](C)(CC(N)=O)[C@H]4CCC(N)=O)[C@@](C)(CC(N)=O)[C@@H]\3CCC(N)=O)C(C)(C)[C@@H]/2CCC(N)=O.[C-]#N.[Co+3]
inactive: activity change, negative = inhibition [17] 2.28% [at 17.2 µM] | activity change, negative = inhibition [18] 0.216% [at 17.2 µM] | activity, negative = inhibition [19] -4.4% [at 17.2 µM] | activation (PDE inhibition) [20] 13.8%

N1=C(c2nnc(-c3nn[nH]n3)nn2)NNN1
inactive: activity change, negative = inhibition [17] -9.45% | activity change, negative = inhibition [18] 1.71% | activity, negative = inhibition [19] 3.45% [at 7.69 µM] | activation (PDE inhibition) [20] 10.3%

CCN(CC)CC(O)COC(=O)C(O)(c1ccccc1)C1CCCCC1 (configuration not stated)
inactive: activity, negative = inhibition [19] 5.83% [at 17.2 µM]

Cc1c([N+](=O)[O-])cccc1[N+](=O)[O-]
inactive: activity change, negative = cytotoxicity [1] -13.7% | Potency [2] | activity change, negative = cytotoxicity [3] -5.08% | activity change, negative = cytotoxic [4] -2.85% | viability change, negative = cytotoxic [5] -0.067% | activity change, negative = cytotoxicity [6] -9.96% | activity change, negative = cytotoxicity [7] 10.9% | caspase-3 activation [8] 0.625% | caspase-3 activation [9] 0.925% | caspase-3 activation [10] 0.912% | caspase-3 activation [11] 0.825% | caspase-3 activation [12] 0.633% | caspase-3 activation [13] -0.284% | caspase-3 activation [14] 0.303% | caspase-3 activation [15] -0.801% | caspase-3 activation [16] 0.0469%

Cc1cccc([N+](=O)[O-])c1[N+](=O)[O-]
active: Potency [2] 5.01 µM
inactive: activity change, negative = cytotoxicity [1] -20.5% | activity change, negative = cytotoxicity [3] 1.15% | activity change, negative = cytotoxic [4] -28.8% | viability change, negative = cytotoxic [5] -22.6% | activity change, negative = cytotoxicity [6] 2.28% | activity change, negative = cytotoxicity [7] -2.61% | caspase-3 activation [8] 0.447% | caspase-3 activation [9] 5.92% | caspase-3 activation [10] -3.7% | caspase-3 activation [11] 1.28% | caspase-3 activation [12] 0.395% | caspase-3 activation [13] -1.92% | caspase-3 activation [14] 0.672% | caspase-3 activation [15] 0.128% | caspase-3 activation [16] 0.0975%
